{
  "sequences": {"note": "Chains of the proteins cited; added tags and fusions are not shown. Residues count along the entry.", "UniProt P05106, 27-788": "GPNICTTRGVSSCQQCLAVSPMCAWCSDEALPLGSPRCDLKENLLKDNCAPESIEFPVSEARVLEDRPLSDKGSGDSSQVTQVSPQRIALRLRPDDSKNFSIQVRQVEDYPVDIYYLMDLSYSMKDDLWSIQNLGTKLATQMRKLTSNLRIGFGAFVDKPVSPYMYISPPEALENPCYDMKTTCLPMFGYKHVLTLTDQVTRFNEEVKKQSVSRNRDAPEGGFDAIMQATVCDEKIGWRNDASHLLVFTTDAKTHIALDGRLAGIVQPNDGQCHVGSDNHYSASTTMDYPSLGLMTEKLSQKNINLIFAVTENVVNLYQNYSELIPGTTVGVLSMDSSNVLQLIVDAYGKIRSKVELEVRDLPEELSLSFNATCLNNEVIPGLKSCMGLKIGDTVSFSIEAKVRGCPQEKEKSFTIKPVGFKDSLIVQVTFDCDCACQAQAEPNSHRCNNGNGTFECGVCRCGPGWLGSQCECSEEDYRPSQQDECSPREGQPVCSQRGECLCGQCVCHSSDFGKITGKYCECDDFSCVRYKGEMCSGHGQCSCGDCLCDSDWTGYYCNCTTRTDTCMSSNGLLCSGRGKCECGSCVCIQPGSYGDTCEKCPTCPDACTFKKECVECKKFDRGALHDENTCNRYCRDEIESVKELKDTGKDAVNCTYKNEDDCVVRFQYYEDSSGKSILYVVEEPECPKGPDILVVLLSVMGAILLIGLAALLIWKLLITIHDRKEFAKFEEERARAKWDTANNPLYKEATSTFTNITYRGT", "UniProt P06756, 891-1048 partner limits assumed": "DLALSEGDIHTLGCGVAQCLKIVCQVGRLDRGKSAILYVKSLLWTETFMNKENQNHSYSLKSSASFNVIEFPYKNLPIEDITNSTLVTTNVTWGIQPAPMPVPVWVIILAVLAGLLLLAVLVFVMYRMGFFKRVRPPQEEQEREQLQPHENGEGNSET", "UniProt P06756, 31-889 limits assumed": "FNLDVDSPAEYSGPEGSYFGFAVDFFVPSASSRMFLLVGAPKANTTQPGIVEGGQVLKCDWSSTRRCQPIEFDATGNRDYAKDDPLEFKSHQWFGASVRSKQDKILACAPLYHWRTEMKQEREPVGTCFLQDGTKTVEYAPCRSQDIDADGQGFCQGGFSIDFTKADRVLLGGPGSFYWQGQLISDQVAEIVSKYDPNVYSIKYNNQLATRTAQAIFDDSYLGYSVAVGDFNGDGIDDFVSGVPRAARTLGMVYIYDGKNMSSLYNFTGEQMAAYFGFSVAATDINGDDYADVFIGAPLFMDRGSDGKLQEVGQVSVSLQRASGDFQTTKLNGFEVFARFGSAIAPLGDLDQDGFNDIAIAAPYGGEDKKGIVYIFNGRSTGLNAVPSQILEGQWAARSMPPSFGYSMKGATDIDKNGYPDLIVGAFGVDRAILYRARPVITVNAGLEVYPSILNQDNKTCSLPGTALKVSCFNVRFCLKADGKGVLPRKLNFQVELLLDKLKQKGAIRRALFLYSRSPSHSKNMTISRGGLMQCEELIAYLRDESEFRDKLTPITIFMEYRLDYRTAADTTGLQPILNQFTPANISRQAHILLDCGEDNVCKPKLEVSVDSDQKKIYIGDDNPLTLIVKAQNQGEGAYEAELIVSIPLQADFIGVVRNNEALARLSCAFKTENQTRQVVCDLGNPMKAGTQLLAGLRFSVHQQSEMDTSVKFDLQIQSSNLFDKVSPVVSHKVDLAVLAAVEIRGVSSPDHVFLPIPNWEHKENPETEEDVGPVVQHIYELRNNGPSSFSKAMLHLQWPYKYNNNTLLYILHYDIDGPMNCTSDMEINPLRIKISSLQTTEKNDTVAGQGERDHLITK"},
  "source": "patent US8642009B2",
  "about": "“Diagnostic system for the detection of skin cancer” (priority 2005, dated 2014)",
  "origin": "cited, not measured here",
  "key": {"U87MG human glioblastoma": {"tested_on": "U87MG human glioblastoma", "details": "U87MG tumour model, 120 min p.i."}, "αvβ3": {"molecular_target": "αvβ3 (Homo sapiens, UniProt P05106+P06756)"}},
  "note": "Marks after values point to notes of the source that are not given here.",
  "data": [
    {"substance": "DOTA-E[E-c(RGDyK)z]2", "values": [
      {"measurement": "Tumour/blood", "setting": "U87MG human glioblastoma", "value": "36^g ^"},
      {"measurement": "Tumour/muscle", "setting": "U87MG human glioblastoma", "value": "12^g ^"},
      {"measurement": "IC50", "setting": "αvβ3", "value": 48, "unit": "nM"}
    ]}
  ]
}
